Source: patent US7195758

Chains of the proteins cited; added tags and fusions are not shown. Residues count along the entry.
UniProt P42081, 24-329: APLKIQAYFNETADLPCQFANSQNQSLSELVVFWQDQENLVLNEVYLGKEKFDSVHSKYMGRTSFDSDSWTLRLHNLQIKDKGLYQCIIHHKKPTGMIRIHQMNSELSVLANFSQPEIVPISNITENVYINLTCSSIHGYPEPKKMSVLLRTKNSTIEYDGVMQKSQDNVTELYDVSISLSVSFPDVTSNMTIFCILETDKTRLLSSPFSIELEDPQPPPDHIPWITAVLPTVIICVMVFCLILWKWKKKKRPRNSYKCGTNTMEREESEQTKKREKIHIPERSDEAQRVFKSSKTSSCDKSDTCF

Tests used:
CD80 (B7-1) (human) = CD80 (B7-1) (human) (UniProt P33681); assay: cell-based or functional assay
CD86 (B7-2) (human) = CD86 (B7-2) (human) (UniProt P42081); assay: cell-based or functional assay

decrease in T cell proliferation in primary MLR with CD4+ T cells, stimulators CD40-B cells from day 15 (CD80 (B7-1) (human)): 75% | decrease in T cell proliferation in primary MLR with CD4+ T cells, stimulators unstimulated B cells and CD40-B cells activated only for short terms (CD80 (B7-1) (human)): > 95% | decrease in T cell proliferation in primary MLR with CD4+ T cells, stimulators CD40-B cells from day 15 (CD86 (B7-2) (human)): 75% | decrease in T cell proliferation in primary MLR with CD4+ T cells, stimulators unstimulated B cells and CD40-B cells activated only for short terms (CD86 (B7-2) (human)): > 95%
Substance: CTLA4-Ig (from UniProt P16410 38-161) (Fc fusion)
